Data on one compound can be found in patent US20240016718A1 (priority 2020, published 2024).

One assay deals with utriculi. Briefly: Utriculi surface (HES histology). In kind it is in vivo, Rhino mice (RHJ/LeJ). Conditions: day 15; Dysport 0.1-1 U i.d.; Adapalene gel 0.1% topical daily.
Another assay relates to sebaceous glands. Briefly: Sebaceous glands surface (HES histology). The settings on record: day 15; Dysport 0.1-1 U i.d.; Adapalene gel 0.1% topical daily. The class given is in vivo, Rhino mice (RHJ/LeJ).
A further assay deals with keratinocytes. Briefly: Keratinocyte proliferation (Ki67 positive cells in epidermis). In kind it is in vivo, Rhino mice (RHJ/LeJ). The settings on record: day 15; Dysport 0.1-1 U i.d.; Adapalene gel 0.1% topical daily.
For a further assay, the system named is epidermis (back skin). Briefly: Epidermis thickness (HES histology). Conditions: day 15; Dysport 0.1-1 U i.d.; Adapalene gel 0.1% topical daily.
Assay [1] relates to sebaceous lipids in sebum (fatty acid, squalene, cholesterol, wax esters, cholesteryl ester). Briefly: Lipidomics analysis of sebum (lipid extraction, GC/FID peak areas). Conditions: Rhino mice sebum, day 15; Dysport i.d.; Adapalene gel 0.1% topical daily. In kind it is in vivo, Rhino mice (RHJ/LeJ).
In another assay the test system is Substance P. Briefly: Substance P ELISA on back skin tissue extracts. In kind it is in vivo, Rhino mice (RHJ/LeJ). Conditions: Rhino mice, day 15; Dysport 0.1-1 U i.d.; Adapalene gel 0.1% topical daily, versus control.
In a further assay the test system is IL-1 alpha. Briefly: IL-1 alpha ELISA on back skin tissue extracts. The class given is in vivo, Rhino mice (RHJ/LeJ). Conditions: Rhino mice back skin, day 15; Dysport 0.1-1 U i.d.; Adapalene gel 0.1% topical daily.
For the next assay, the system named is fibroblasts. Briefly: Fibroblast proliferation (Ki67 positive cells in dermis). The class given is in vivo, Rhino mice (RHJ/LeJ). Conditions: day 15; Dysport 0.1-1 U i.d.; Adapalene gel 0.1% topical daily.
The test system of assay [2] is dermis (inflammatory infiltrate). Briefly: Dermis inflammation (number of nuclei/1000 μm^2 on HES slices). The settings on record: day 15; Dysport i.d. (closely followed the dose); Adapalene gel 0.1% topical daily.

On to `COc1ccc(-c2ccc3cc(C(=O)O)ccc3c2)cc1C12CC3CC(CC(C3)C1)C2` [Adapalene], for which the “Effect on utricles surface” value in the assay with utriculi was “significantly decreased”. Besides, in the assay with sebaceous glands, the “Effect on sebaceous glands surface” value is “significantly increased”. In addition, the “Effect on keratinocyte proliferation” value in the assay with keratinocytes is listed as “significantly increased”. In the assay with epidermis (back skin), the “Effect on thickness of epidermis” value was “significantly increased”. For the same compound, in [1], the “Effect on lipid content / lipid species of sebum” value was “did not change significantly”. In addition, the “Effect on Substance P level in back skin” value in the assay on Substance P is listed as “similar”. The “Effect on IL-1 alpha levels” value in the assay on IL-1 alpha is “significantly reduced”. For the same compound, the “Effect on fibroblast proliferation” value with fibroblasts is “significantly increased”. In addition, in [2], the “Effect on dermis inflammation” value is recorded as “significantly increased”.
